# Source: patent US7070778B2, “Therapeutical combination against cancer” (Laboratoire Goemar SA, priority 2003, dated 2006)
# Tested on: BT-474 human breast carcinoma
# Assay: Effect on the tumor growth: BT-474 human breast carcinoma xenograft in nude mice
# Type: in vivo
# Conditions: for Average daily weight of the tumor: Group 2: Herceptin 0.5 mg/kg i.p. twice a week during 3 weeks
# Method: Female nude mice (nulnu) between 5 and 6 weeks of age weighing approximately 20 g were obtained from Harlan, Inc. (Madison, Wis.). The BT-474 human breast carcinoma cell line was obtained from the American Type Culture Collection (ATCC). BT-474 was established by E. Lasfargues and W. G. Coutinho from a solid carcinoma of the breast obtained from a patient (2). Twenty-one-day release 17β-estradiol pellets at 0.25 mg (Innovative Research of America) were implanted subcutaneously into each mouse. The following day, animals were implanted s.c. by trocar with fragments of human tumor carcinomas harvested from s.c. growing tumors in nude mice hosts. When the tumors were approximately 40 mg in size (24 days following inoculation), the animals were pair-matched into treatment and control groups. All of the groups contained 9 mice. All of the animals were ear-tagged and followed individually throughout the experiment.
# The mice of each group were administered intra peritoneally with 2 ml of the following composition:
# Group 1: (control) sterile H2O, 5 times a day
# Mice were weighed twice weekly, and tumor measurements were obtained using calipers twice weekly, starting on Day 1. These tumor measurements were converted to mg tumor weight by the standard formula, (W^2×L)/2 (2). The experiment was terminated when the control group tumor size reached an average of 500 mg. Upon termination (Day 46), the mice were weighed, sacrificed and their tumors were excised. The tumors were weighed, and the mean tumor weight per group was calculated.
# With this agent, the final weight of a given tumor was subtracted from its own weight at the start of treatment on Day 1. This difference was divided by the initial tumor weight to give the % regression. A mean % tumor regression was calculated from data from mice in a group that experienced tumor regressions.
substance,measurement,setting,value
Herceptin: monoclonal antibody manufactured by Genentech,effect on the growth of the tumor (in words),Herceptin 0.5 mg/kg,allows a limitation of the growth of the tumor
same,Average daily weight of the tumor,day 1,40.3 mg
same,Average daily weight of the tumor,day 5,60.0 mg
same,Average daily weight of the tumor,day 9,89.9 mg
same,Average daily weight of the tumor,day 12,110.9 mg
same,Average daily weight of the tumor,day 16,137.9 mg
same,Average daily weight of the tumor,day 19,204.6 mg
same,Average daily weight of the tumor,day 23,231.3 mg
same,Average daily weight of the tumor,day 26,272.8 mg
same,Average daily weight of the tumor,day 29,304.7 mg
same,Average daily weight of the tumor,day 32,346.0 mg
same,Average daily weight of the tumor,day 36,476.0 mg
same,Average daily weight of the tumor,day 39,489.8 mg
same,Average daily weight of the tumor,day 43,551.1 mg
same,Average daily weight of the tumor,day 46,727.9 mg
